Source: patent publication US20240082398A1, “METHODS OF PREPARING AND EXPANDING TYPE I INNATE LYMPHOID CELLS AND THERAPEUTIC USES THEREOF” (City of Hope, priority 2021, published 2024)

Columns and labels:
[1] = test system: LSCs isolated from spleen of Mll^PTD/WT: Flt3^ITD/ITD mice with AML; experiment: In vitro kinase inhibitor experiments (LSC pretreatment, then ILC1 co-culture); assay type: cell-based, mouse; details: for number of LSCs in the presence of inhibitor: co-culture with WT ILC1s, vs corresponding control; for Lin^−Sca-1^−c-Kit^− cell population: inhibitor combined with ILC1s vs ILC1s alone
[2] = test system: LSCs from Mll^PTD/WT: Flt3^ITD/ITD mice with AML; experiment: LSC differentiation into terminal myeloid blasts (Mac-1^+, Gr-1^+, Wright-Giemsa); assay type: cell-based, mouse; details: vs LSCs alone / untreated; co-culture 1-4 days; IFN-γ 0.1, 1, 10 ng/ml

Row | number of LSCs in the presence of inhibitor [1] | Molecule | Lin^−Sca-1^−c-Kit^− cell population [1] | LSC differentiation into terminal myeloid blasts (cells expressing Mac-1 and Gr-1) [2]
1 | decreased | Cc1cc(Nc2nc(N[C@@H](C)c3ncc(F)cn3)ncc2Cl)n[nH]1 [AZD1480] | no significant alteration | 
2 | decreased | CC[C@@](C)(Nc1ccnc(-c2c[nH]c3ncccc23)n1)C(=O)NCC(F)(F)F [VX-509, decernotinib] | no significant alteration | 
3 |  | recombinant murine IFN-γ: animal-free recombinant murine IFN-γ cytokine |  | suppressed the differentiation of LSCs into cells expressing Mac-1 and Gr-1
